This is an account of results in ChEMBL document CHEMBL4354824, “4-Aryl-1-oxa-4,9-diazaspiro[5.5]undecane Derivatives as Dual μ-Opioid Receptor Agonists and σ1 Receptor Antagonists for the Treatment of Pain” (J Med Chem, 2020).

Chains of the proteins cited; added tags and fusions are not shown.
UniProt P35372, whole entry, looked up: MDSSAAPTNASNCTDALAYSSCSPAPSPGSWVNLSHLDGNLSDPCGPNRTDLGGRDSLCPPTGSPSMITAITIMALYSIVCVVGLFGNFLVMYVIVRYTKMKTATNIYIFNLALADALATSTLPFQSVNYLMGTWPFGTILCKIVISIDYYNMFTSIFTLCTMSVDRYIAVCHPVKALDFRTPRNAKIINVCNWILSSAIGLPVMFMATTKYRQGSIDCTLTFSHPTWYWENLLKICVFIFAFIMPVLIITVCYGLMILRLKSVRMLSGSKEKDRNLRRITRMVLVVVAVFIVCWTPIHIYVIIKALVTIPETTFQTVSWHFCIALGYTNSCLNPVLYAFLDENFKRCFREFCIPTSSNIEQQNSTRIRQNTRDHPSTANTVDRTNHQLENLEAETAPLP
UniProt Q99720, whole entry, looked up: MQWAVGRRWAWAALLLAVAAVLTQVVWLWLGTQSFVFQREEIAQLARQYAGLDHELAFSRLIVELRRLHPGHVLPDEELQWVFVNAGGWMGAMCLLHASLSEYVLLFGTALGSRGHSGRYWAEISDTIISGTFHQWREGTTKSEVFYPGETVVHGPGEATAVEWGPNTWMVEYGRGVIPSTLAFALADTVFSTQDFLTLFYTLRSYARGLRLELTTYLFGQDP

Assay [1] addresses T1, Mu-type opioid receptor (Homo sapiens, UniProt P35372).
For assay [2], the target named is Sigma non-opioid intracellular receptor 1 (Homo sapiens, UniProt Q99720). As to conditions: hek293.
Assay [3] addresses T1, Mu-type opioid receptor. Put plainly: Agonist activity at human MOR expressed in CHOK1 cells assessed as […] of cAMP accumulation incubated for 45 mins by HTRF assay.

Broadly, the pKi is the negative decadic logarithm of the Ki, by convention in mol/L. A higher pKi goes with a low Ki. By pEC50 is commonly meant the EC50 on a negative log10 scale, so that one unit is a factor of ten.

Each structure is given as a SMILES string. pEC50, pKi: −log10 of the molar value.

For the compound `O=C1COC2(CCN(CCc3ccccc3)CC2)CN1c1ccccc1`, the pKi is 6.36 on Mu-type opioid receptor [1] and 7.24 in assay [2]. In addition, at Mu-type opioid receptor [3], the negative logarithm of the EC50 (pEC50) is 6.28.
